In patent US20260382588A1, “COMPOUNDS CONTAINING A HYDROXYPHENYL MOIETY AND THEIR USE” (published 2026):

Key:
[1] = test system: U87-luc orthotopic GB tumors; experiment: Orthotopic U87-luc GB mouse model: tumor growth, survival and relapse
Excerpt: Tumor cell orthotopic implantation—Tumor cells (U87-Luc (A. Jabouille, et al., Oncotarget, 2015, 6, 24922-24934)) were implanted into the brain of immunodeficient NMRI-Foxnlnu/Foxn1nu, 8 weeks old male mice (Janvier Laboratories, Laval, France). All animal procedures met the European Community Directive guidelines (Agreement B35-238-40 Biosit Rennes, France/No DIR 13480) and were approved by the local (University of Rennes) ethics committee and ensuring the breeding and the daily monitoring of the animals in the best conditions of wellbeing according to the law and the rule of 3R (Reduce-Refine-Replace). U87-Luc cells were implanted in the mouse brain by intracerebral injection followed by tumor growth monitoring using bioluminescence (PhotonIMAGER™ systems, BIOSPACE LAB). The mice were anesthetized intraperitoneally (i.p. mix Xylazine 10 mg/kg and Ketamin 60 mg/kg) and then fixed on a stereotactic frame. This framework makes it possible to manipulate the brains of living animals, and to reach isolated areas of the brain precisely relative to markings visible to the naked eye through the use of three-dimensional coordinates. After incising the scalp, the stereotaxic coordinates were calculated for injection of tumor cells into a specific point of the brain, and reproducible for all the mice used. In the study, the tumor cells (5×10^4 cells per mice in 1 μL) were injected at Bregma 0, 2.2 mm to the left of the bregma and 3.2 mm deep to perform the implantation at the level of the striatum.
Mouse treatments—Four days after tumor cells implantation, compound 28 (Z4P) treatments were started consisting in treatments of 300 μg/kg/day intraperitonially. For the RNA quantification experiment, performed on tumors generated in mice, three mice per group were treated according to the methods above. Mice were sacrificed at day 34 and the brains were removed and extract the tumor. The samples were used to extract RNA for the analysis, as described below.
For the survival experiment, performed on tumors generated in mice, co-treatment with TMZ was performed one week after the beginning of compound 33 (Z4) treatment (n=7 per group for the TMZ and COMBO, n=8 per group for the control and compound 28 (Z4P)). The animals were injected with 10 mg/kg/day of TMZ delivered intraperitoneally for ten days. All the treatments were performed with 2 days of rest each week. Survival was measured as the time between implantation and sacrifice, which was performed by cervical dislocation in case of critical clinical signs or loss of weight >10%.
Bioluminescence monitoring—Mice were evaluated with in vivo bioluminescence imaging every 3 days starting from the day 4, for the first week, and weekly onward for tumor progression and followed for signs of neurologic deterioration daily. […]

RADH87 cells = experiment: Proteome analysis of treated RADH87 cells
Protocol: Proteomic analyses—Untreated and MKC8866 and compound 33 (Z4)-treated (during 48 hours) parental U251 and RADH87 GB cells as well as DN IRE1 U251 and RADH87 cells were lysed with lysis buffer composed of 20 mM Tris pH 8, 1.5 mM EDTA, 150 mM NaCl, 1% Triton X-100, 0.1% SDS, supplemented with proteases and phosphatases inhibitor cocktails (Roche). Total proteins were precipitated with 80% ice-cold acetone. Washed pellet were then denatured with 8 M urea in Tris-HCl 0.1 mM, reduced with 5 mM TCEP for 30 minutes, and then alkylated with 10 mM iodoacetamide for 30 minutes in the dark. […] Samples were analyzed using an Ultimate 3000 nano-RSLC (Thermo Scientific, San Jose California) coupled in line with a LTQ-Orbitrap ELITE mass spectrometer via a nano-electrospray ionization source (Thermo Scientific, San Jose California). Proteins were identified and quantified by database searching using SequestHT (Thermo Fisher Scientific) with Proteome Discoverer 2.4 software (PD2.4, Thermo Fisher Scientific) against Homo sapiens reviewed SwissProt database. Peptides and proteins were filtered with a false discovery rate (FDR) at 1% and their quantification was based on XIC (Extracted Ion Chromatogram). […]

Row | Compound | tumor growth or mouse survival ([1]; compound alone, i.p. 300 μg/kg daily (FIGS. 4B and 4C)) | tumor relapse, co-treatment with TMZ ([1]; compound i.p. plus TMZ, over 200 days (FIG. 5D)) | tumor growth, co-treatment with TMZ ([1]; i.p. 300 μg/kg daily from D4 plus TMZ 10 mg/kg, 10 daily treatments (FIG. 5D)) | pathways impacted in proteome (RADH87 cells; 48 hours) | proteome alterations versus cells with genetically blunted IRE1 activity (RADH87 cells; comparison with DN and Q780stop)
1 | Cc1ccc(C)c(NC(=O)NC(C)CCc2ccc(O)cc2)c1 (racemic) | no effect on tumor growth or mouse survival | no tumor relapse was observed | significantly decreased tumor growth | – | –
2 | Cc1ccc(C(N)=O)cc1NC(=O)NC(C)CCc1ccc(O)cc1 (racemic) | – | – | – | impacted on particular pathways such as cell adhesion, circulatory system development, cell locomotion and cell migration | phenocopied those observed in cells in which IRE1 activity was genetically blunted
